# Reference: PubChem BioAssay AID493030 (The Scripps Research Institute Molecular Screening Center, 2011)
# Only a part is listed here, and it is no random draw. Activity calls are given as the source filed them.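 How the source made its calls: active means mean inhibition over three repeats above a set limit taken from the earlier primary screen (cut at about 30% in these data); inactive means the rest.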
# Target: Platelet-activating factor acetylhydrolase 2, cytoplasmic (Homo sapiens) (UniProt Q99487)
# Assay: PAFAH2 enzyme inhibitors, confirmation, biochemical, fluorescence polarization, human (AID 493030);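 further: inhibitor blocks binding of rhodamine activity probe so polarization falls; 0% = enzyme with DMSO and 100% = wells lacking PAFAH2 protein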
# Settings: recombinant PAFAH2, FP-rhodamine activity probe, at 3.39 µM, hits give high values
row,SMILES,inhibition
1,O=[N+]([O-])c1ccc(O)c(/C=N/Nc2ccc([N+](=O)[O-])cc2[N+](=O)[O-])c1,active: 39%
